## AlphaSeq binding of Ab-14 light chain variants to a spike HR2 peptide

Values reported by Li et al. 2023, doi:10.1038/s41467-023-39022-2 (FLAb copy).

Target: peptide PDVDLGDISGINAS, taken from heptad repeat 2 (HR2) of SARS-CoV-2 spike.

Parent scFv Ab-14: VH joined to VL by a (GGGGS)3 linker. Changes lie in the light chain CDRs alone.
VH: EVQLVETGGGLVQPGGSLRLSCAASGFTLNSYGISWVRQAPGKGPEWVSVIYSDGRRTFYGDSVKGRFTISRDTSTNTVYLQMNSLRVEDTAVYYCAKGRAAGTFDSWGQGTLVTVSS
VL: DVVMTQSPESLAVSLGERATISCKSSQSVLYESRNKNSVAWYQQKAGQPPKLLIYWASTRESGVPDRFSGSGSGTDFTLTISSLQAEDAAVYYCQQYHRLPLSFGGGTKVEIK

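Phage display of a naive human antibody library on the peptide gave the parent. Designed CDR sequences, proposed from the first random library and measured here. Group labels follow the data file (Ctrl: baseline library sampled from a position-specific scoring matrix, with some repeated check sequences; GP: Gaussian process model; Gen: genetic algorithm; a sequence that several methods proposed may carry one label only). Affinity was read by AlphaSeq, a pooled yeast mating assay with surface-displayed partners. Mating (16 h, 30 °C) was followed by selection of diploids and sequencing of their barcodes. The ratio of observed to expected reads was calibrated, replicate by replicate, on BCL2-family standards whose Kd was known from biolayer interferometry. The assay was run in six technical replicates.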

The parent's light chain CDRs are KSSQSVLYESRNKNSVA, WASTRES, QQYHRLPLS; each variant's own CDRs replace them letter for letter.
Scale: log10 of Kd in nM, estimated from mating counts; low values are strong binders.
Averages over replicates are reported, and they cover detected replicates only.
Where no diploid with the target was found in that replicate, the entry reads "ND": below detection, most likely a poor binder, though not proof of it.
Values of this round are not directly comparable with the first-round values of the same sequences.
Some sequences occur more than once in the pool; their replicates are listed entry by entry, parted by semicolons.
The authors averaged sequences with at least three values out of six and counted those with two or fewer as poor binders.
The parent sequence was in this pool as ten entries: three were never detected, three once, and four in most replicates, with averages from 0.34 to 2.37.
Background: pairings of all light chain designs with three empty control strains gave a value in 4% of cases (median 2.64, 5th percentile 1.59). Values in that range, when seen in few replicates, are hard to tell from nonspecific mating. The control count says in how many pairings with the empty strains this scFv gave a signal.

The variant KCSQSVLYESRNKNSVA, AASTRES, QQYHRLPLS [Ctrl] showed 0.35, 0.29, -0.04, 0.24, 0.06, 0.36 (mean 0.21; controls 1 of 18).
The variant KSSQSQLMESGNKNNVA, WASERES, QRYHRLPLS [Ctrl] showed ND, ND, ND, ND, ND, ND (controls 0 of 18).
The variant KSSQGLLYESRNKNSVA, SASTRES, QQYHRLPLS [Ctrl] showed 0.97, 0.46, 0.52, 0.16, 0.31, 0.55 (mean 0.50; controls 0 of 18).
The variant KLSQSVLYESRNKNSVA, QASTRES, QQYHRLPLS [Ctrl+GP_Gen] showed 0.08, -0.22, 0.01, -0.26, -0.09, -0.24; -0.01, -0.25, -0.32, -0.42, -0.48, -0.29 (mean -0.21; controls 1 of 36).
The variant KSSQSVDYEIRNVNSVA, WASTRES, QQYQRLPLS [Ctrl] showed 1.48, 2.60, ND, 1.37, 1.29, 2.84 (mean 1.92; controls 0 of 18).
The variant KSSQEVLQEDRNKNSVA, TASERES, QQYHRLPLS [Ctrl] showed 0.65, 0.62, 0.02, 1.46, 0.57, 0.39 (mean 0.62; controls 0 of 18).
The variant KSSQSVIYNSRNKNSVA, WASTRQS, QQYHRLPLS [Ctrl] showed ND, 2.69, 1.88, 2.75, 2.83, 3.45 (mean 2.72; controls 1 of 18).
The variant KLSQSVLYERRNKNSIW, SASTRES, MVYHRLPLS [Ctrl] showed ND, ND, ND, ND, ND, ND (controls 0 of 18).
The variant KSSQSVLYESRNHNSVA, NASTRES, QQYHRLPLS [Ctrl] showed 0.47, 0.14, 0.01, -0.13, 0.11, 0.10 (mean 0.12; controls 0 of 18).
The variant KSSQPELYESRNKNSVA, DVSTRES, QQYHRLPLS [Ctrl] showed 0.33, -0.08, -0.26, -0.18, -0.10, 0.03 (mean -0.04; controls 2 of 18).
The variant KSSQSVLYESRNFNSVA, SASTRHS, QQYHRLPLS [Ctrl] showed 0.13, 0.41, 0.26, 0.72, 0.43, 0.40 (mean 0.39; controls 0 of 18).
The variant KSSKSFLYESRNKNSVA, WAATRES, QQYHRLPLS [Ctrl] showed ND, ND, ND, ND, ND, ND (controls 1 of 18).
The variant KMSQSNLYESRNKNSVA, WASTRES, QQYHRLPLS [Ctrl] showed 1.10, 0.82, 0.84, 0.48, 0.10, 0.61 (mean 0.66; controls 1 of 18).
The variant KIIQSVLYESMNKNSVA, WASTRES, QQYVRLPLS [Ctrl] showed 1.72, 2.01, 2.45, 2.37, ND, 2.11 (mean 2.13; controls 1 of 18).
The variant KSHQGVLYEFRNKNSIA, DASTRES, QQYHRLPLS [Ctrl] showed 0.78, 0.49, 0.53, 0.35, 0.60, 0.46 (mean 0.54; controls 1 of 18).
The variant KSQQSVLYESRNKNSVA, WASTRES, QQYHRLPLS [Ctrl] showed 2.38, 2.23, 2.01, 2.52, 1.52, 2.42 (mean 2.18; controls 3 of 18).
The variant KSSTDMLYESRNKNSVA, SASTRES, QQYHRLPLS [Ctrl] showed 0.23, -0.06, 0.05, 0.23, 0.13, 0.11 (mean 0.12; controls 1 of 18).
The variant KSMQSVLGESDNKNSVA, AASTRES, QQYHRLPLS [Ctrl] showed 0.73, 0.96, 0.86, 0.45, 0.55, 0.87 (mean 0.74; controls 3 of 18).
The variant KSSQSVLYEKSNKNSVA, WASTRAS, QQYHRWPLT [Ctrl] showed 2.44, 2.30, ND, 2.18, 2.40, 2.82 (mean 2.43; controls 2 of 18).
The variant KMSQTMLYESANMNSVA, AASTPES, QQYHRLPLS [Ctrl] showed 0.06, 0.03, -0.06, -0.18, -0.09, -0.01 (mean -0.04; controls 0 of 18).
The variant KSSQPVLYESRNKNSVA, KASTRES, QQYHRKPLS [Ctrl] showed 2.85, 1.88, 1.60, 1.14, 2.47, 3.03 (mean 2.16; controls 0 of 18).
The variant KSYQNVQYESRPKNSVA, WASTRES, QQYHRLPLS [Ctrl] showed ND, 2.37, ND, 4.53, ND, ND (mean 3.45; controls 0 of 18).
The variant KSSQSVLYESRNKNSVA, WASTRES, QQYCRLPLS [Ctrl] showed ND, ND, ND, ND, ND, ND (controls 0 of 18).
The variant KSSGSILYESRNKNSVA, WASTRES, QQYHRLPLS [Ctrl] showed ND, 1.29, ND, ND, 3.29, 2.46 (mean 2.35; controls 0 of 18).
The variant KSSTSVLSESNNKNSVA, GENTRES, QQYHRLPLS [Ctrl] showed 0.46, 1.15, 0.73, -0.33, 0.61, 0.57 (mean 0.53; controls 2 of 18).
The variant KWKQSGLYESRNANSVA, WASTRES, QQYHQLPLS [Ctrl] showed 0.69, 1.51, 1.79, 0.37, 1.45, 1.85 (mean 1.28; controls 0 of 18).
The variant KDSQSVLYESRNKNSVA, WASTRES, QQYHRLPFS [Ctrl] showed 1.92, 1.68, 0.90, 1.57, 1.70, 1.61 (mean 1.56; controls 1 of 18).
The variant KASQSALQEMRNKNSVA, SASTRES, QQYHRLPLS [Ctrl] showed 0.20, 0.11, 0.20, 0.01, -0.21, 0.05 (mean 0.06; controls 1 of 18).
The variant KSSQSVTYESRNKNSVA, DASLRES, QQYHRLPLS [Ctrl] showed ND, ND, ND, ND, ND, ND (controls 0 of 18).
The variant KMSQSVLYESRFLNSVA, YASTRQN, QQYHRLPES [Ctrl] showed ND, ND, ND, ND, ND, ND (controls 0 of 18).
The variant KQSQSTLQESRNKNSVA, NCSTRES, QQYHRLPLS [Ctrl] showed 0.47, 0.28, -0.02, 0.21, 0.20, 0.33 (mean 0.25; controls 1 of 18).
The variant KSSKSVLYESRNCNSVA, WGSTRES, QQYHRLPLS [Ctrl] showed 0.55, 0.79, 0.11, 0.75, 0.84, 1.21 (mean 0.71; controls 0 of 18).

For reference, 4 entries of the list once more:

With KSSTSVLSESNNKNSVA, GENTRES, QQYHRLPLS [Ctrl] the result was 0.46, 1.15, 0.73, -0.33, 0.61, 0.57 (mean 0.53; controls 2 of 18).
With KMSQSVLYESRFLNSVA, YASTRQN, QQYHRLPES [Ctrl] the result was ND, ND, ND, ND, ND, ND (controls 0 of 18).
With KMSQSNLYESRNKNSVA, WASTRES, QQYHRLPLS [Ctrl] the result was 1.10, 0.82, 0.84, 0.48, 0.10, 0.61 (mean 0.66; controls 1 of 18).
With KSSQSVDYEIRNVNSVA, WASTRES, QQYQRLPLS [Ctrl] the result was 1.48, 2.60, ND, 1.37, 1.29, 2.84 (mean 1.92; controls 0 of 18).